We go through one substance from US20210187115A1, “Immunoconjugates Targeting EGFR” (Bolt Biotherapeutics, Inc., priority 2018, published 2021).

This test deals with COLO 205 tumor cells. The test is described as follows: humanized mouse model with COLO 205 colorectal tumor xenograft and human PBMCs. Format: in vivo. The note with it: COLO 205 xenograft admixed with NK-depleted human PBMCs in immunodeficient mice; systemic treatment started 4 days after inoculation; FIG. 1. The procedure: This example employed a humanized mouse model, in which immunodeficient mice are simultaneously engrafted with human peripheral blood mononuclear cells (“PBMCs”) and a human tumor xenograft. PBMCs from healthy donors were isolated and depleted of NK cells. A human tumor model for colorectal cancer, COLO 205, was utilized, as this tumor is known to highly express the tumor antigen EGFR, enabling the use of the clinical monoclonal antibody cetuximab. The COLO 205 tumor cells were prepared as follows.
The COLO 205 tumor cells were maintained in vitro in RPMI-1640 medium supplemented with 10% fetal bovine serum at 37° C. in an atmosphere of 5% CO2 in air. The cells in exponential growth phase were harvested and quantitated by cell counter before tumor inoculation.
PBMCs were isolated from blood of two healthy donors by density gradient centrifugation using standard procedures. […]
Tumor volumes were measured twice per week after randomization in two dimensions using a caliper, and the volume was expressed in mm^3 using the formula: “V=(L×W×W)/2, where V is tumor volume, L is tumor length (the longest tumor dimension) and W is tumor width (the longest tumor dimension perpendicular to L). […] The body weights and tumor volumes were calculated using STUDYDIRECTOR™ software (version 3.1.399.19).
For orientation: In xenograft studies the graft and the host belong to different species.

cetuximab: the “tumor volume (control of tumor growth)” value is given as “not sufficient for control of tumor growth”.
